# The list shows a part of the results, in another mix than the full data. Some tests of the compounds listed are not included; inactive here does not mean inactive elsewhere. Activity calls are given as the source filed them. Cut-off read from the data, not from the text of the source: active = max response mostly above about 13% (no sharp cut-off); inactive = mostly below about 14%.
# Assay: Cycloheximide Counterscreen for Small Molecule Inhibitors of Shiga Toxin; note: read at 38.3 µM for the half of the compounds with a filed dose; 0% is about no effect
# Settings: cell reporter, cycloheximide protein synthesis inhibition counterscreen; stronger effect = higher value
row,Structure (SMILES),max response
1,CC(C)N1C(=O)CC2(CCN(CCOC(=O)C(O)(c3ccccc3)c3ccccc3)CC2)C1=O,inactive: 0.643%
2,COc1cc(SC)ccc1C(=O)NCC1(N(C)C)CCCCC1,inactive: -2.28%
3,CCN(CC)CC(C)C(C)OC(=O)C(O)(c1ccccc1)c1ccccc1 (centres undefined),inactive: 1.57%
4,Cc1ccc(C(=O)NCC2(N3CCCCC3)CCCCC2)cc1,inactive: -5.44%
5,O=C(NCC1(N2CCCCC2)CCCCC1)c1cc([N+](=O)[O-])ccc1Cl,inactive: -2%
6,CN1[C@@H]2CC[C@H]1CC(OC(=O)C(O)(c1ccccc1)c1ccccc1)C2 (some centres undefined),inactive: -1.29%
7,O=C(NCC1(N2CCCCC2)CCCCC1)c1cc(F)c(F)cc1Cl,inactive: -7.21%
8,C=CCN1CCN(CCOC(=O)C(O)(c2ccccc2)c2ccccc2)CC1,inactive: 4%
9,O=C(NCC1(N2CCCCC2)CCCCC1)c1cccc(Br)c1,inactive: -5.92%
10,Cc1cc(C(=O)NCC2(N3CCCCC3)CCCCC2)ccc1[N+](=O)[O-],inactive: -6.7%
11,CCN1CCCC(OC(=O)C2(O)c3ccccc3C=Cc3ccccc32)C1 (centres undefined),inactive: -2.51%
12,COc1ccc(C(=O)NCC2(N(C)C)CCCCC2)cc1,inactive: 5.85%
13,CN(C)C1CCCC1OC(=O)C(O)(c1ccccc1)c1ccccc1 (centres undefined),inactive: 3.88%
14,CN(C)c1ccc(C(=O)NCC2(N(C)C)CCCCC2)cc1,inactive: 1.53%
15,Cc1ccccc1C(=O)NCC1(N2CCCCC2)CCCCC1,inactive: -2.4%
16,COc1ccc(Cl)cc1C(=O)NCC1(N(C)C)CCCCC1,inactive: 6.69%
17,COc1cccc(C(=O)NCC2(N3CCCCC3)CCCCC2)c1,inactive: -1.77%
18,O=C(NCC1(N2CCCCC2)CCCCC1)c1cccc(Cl)c1,inactive: -2.24%
19,CN(C)C1(CNC(=O)c2ccc(Br)cc2)CCCCC1,inactive: 1.73%
20,COc1cc(C(=O)NCC2(N(C)C)CCCCC2)c([N+](=O)[O-])cc1OC,inactive: -4.21%
21,COc1ccc(Br)c(C(=O)NCC2(N3CCCCC3)CCCCC2)c1,inactive: -0.864%
22,CN(C)c1cccc(C(=O)NCC2(N(C)C)CCCCC2)c1,inactive: -4.38%
23,CC(C)Oc1ccc(C(=O)NCC2(N(C)C)CCCCC2)cc1,inactive: 10.2%
24,O=C(OC1CN2CCC1CC2)C(CO)(c1ccccc1)c1ccccc1 (centres undefined),inactive: -2.54%
